Source: patent publication US20230167408A1, “METHODS AND COMPOSITIONS FOR MAINTAINING AND EXPANDING HEMATOPOIETIC STEM CELLS” (Trailhead Biosystems Inc., priority 2021, published 2023)

Test system: CD34+ cells
Test: Culture of CD34+ cells in the presence of commonly used cytokines
Assay type: cell-based, human
Method: To further validate the HSC culture recipe described in Example 1, CD34+ cord blood derived cells were grown for 7 days in media comprising the ingredients shown in Table 1 and flow cytometry analysis was used to assess markers of the LT-HSC state. Markers tested included Lineage (CD3, CD14, CD16, CD19, CD20, CD56), CD34, CD38, CD45RA and CD90. Additionally, cells were grown in media with SCF and TPO as a control, commonly used by others to promote HSC expansion. […] 100,000 cells were plated for each condition.

B1: IL3: commonly used cytokine to expand HSC (protein, UniProt P08700 20-152, looked up)
Interleukin-3: APMTQTTPLKTSWVNCSNMIDEIITHLKQPPLPLLDFNNLNGEDQDILMENNLRRPNLEAFNRAVKSLQNASAIESILKNLLPCLPLATAAPTRHPIHIKDGDWNEFRRKLTFYLKTLENAQAQQTTLSLAIF
lineage bias of CD34+ cells cultured in the presence of the cytokine: induction of a myeloid bias
